Yeast mating assay B: variants of the scFv Ab-14

All variants were tested on one target, the spike HR2 peptide PDVDLGDISGINAS (SARS-CoV-2).

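These sequences belong to a second round, designed from the earlier measurements on random variants of the parent. Their group label is 14H_GP_HC (GP: Gaussian process model; HC: hill climbing; a sequence that several methods proposed may carry one label only). The scFvs were displayed on barcoded MATa yeast, the peptide on MATalpha yeast. The frequency of each diploid, read from paired DNA barcodes, reflects how well the two displayed proteins bind. Scores were corrected for input abundance and mapped to Kd with protein pairs of known affinity run in the same pool. Mating was done six times.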

Ab-14 is the parent antibody, in scFv form: VH, then a (GGGGS)3 linker, then VL. The light chain is unchanged in all variants.
VH: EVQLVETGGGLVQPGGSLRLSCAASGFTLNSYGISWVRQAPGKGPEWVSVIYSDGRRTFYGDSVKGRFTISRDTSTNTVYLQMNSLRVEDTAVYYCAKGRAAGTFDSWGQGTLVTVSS
VL: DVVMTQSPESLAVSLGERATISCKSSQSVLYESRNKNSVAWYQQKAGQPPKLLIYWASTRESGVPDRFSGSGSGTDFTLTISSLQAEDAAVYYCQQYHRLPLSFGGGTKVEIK

Positions count from residue 1 of the parent VH; T28D puts D in place of T. The read-out is the apparent dissociation constant on a log10 scale (nM): the lower, the stronger. "ND" means that the variant was in the library but no mating with the target was seen in that replicate; the authors take this as a sign of poor binding, and no number exists.

| # | changes | log10 Kd (nM) by replicate | empty controls |
|---|---|---|---|
| 1 | T28D+S31E+S107E | ND ND ND ND ND ND | 0 of 18 |
| 2 | T28S+S31D+F59Y+D106I | ND ND 4.37 ND ND ND | 1 of 18 (3.73) |
| 3 | S53A+R100E+D106K+S107M | 1.17 0.90 0.96 0.57 -0.04 0.41 | 0 of 18 |
| 4 | G61S+G103V+S107L | ND ND ND ND ND ND | 0 of 18 |
| 5 | S31E+R100M+S107L | 0.32 0.01 0.10 -0.19 0.58 0.09 | 1 of 18 (2.61) |
| 6 | N30D+G61D+R100Q+A101V | -0.42 -0.22 -0.09 -0.38 -0.23 -0.54 | 0 of 18 |
| 7 | G26Q+T28D+A101Q | ND ND ND ND ND ND | 0 of 18 |
| 8 | N30D+S31K+A101T | 0.63 0.29 0.28 -0.14 0.28 0.54 | 1 of 18 (3.19) |
| 9 | T28A+G61I+R100Q+A101L | ND 0.51 0.81 ND 0.73 ND | 0 of 18 |
| 10 | N30D+S31E+S53A+A101T | 0.38 0.58 1.28 0.01 0.39 1.26 | 0 of 18 |
| 11 | T28D+S31E+G61S+T104F | 1.84 ND ND ND ND ND | 0 of 18 |
| 12 | T28Q+S31D+G61I+S63N+R100K | 1.27 ND ND 3.68 2.64 1.77 | 1 of 18 (2.25) |
| 13 | T28S+S31E+G61T+S63R | 0.12 0.02 0.44 0.22 0.52 0.52 | 2 of 18 (2.04) |
| 14 | T28D+A101E+T104R+D106R | ND ND ND ND ND ND | 0 of 18 |
| 15 | T28N+S31E+G61H+A101F | 0.87 0.69 0.35 0.20 0.53 0.52 | 0 of 18 |
| 16 | T28Q+F59W+R100Q | ND 0.32 ND ND 0.76 1.33 | 0 of 18 |
| 17 | N30K+S31E+G103V+S107V | ND ND ND ND ND ND | 0 of 18 |
| 18 | T28P+S31M+S53A+R100E | 0.23 -0.15 -0.12 -0.24 -0.16 0.07 | 0 of 18 |
| 19 | S31E+D106K+S107L | ND ND ND ND ND ND | 0 of 18 |
| 20 | T28S+S31D+A101K+D106I | ND ND ND 1.80 ND ND | 0 of 18 |
| 21 | T28E+G61D+R100Q+A101V | 0.40 1.06 0.19 0.23 0.16 0.41 | 1 of 18 (2.35) |
| 22 | R56M+G61S+R100I+A101T | 0.60 0.23 0.04 -0.06 0.21 0.32 | 0 of 18 |
| 23 | S31D+G61I+S63A+R100N | ND ND 1.90 ND ND ND | 0 of 18 |
| 24 | S31E+G61S+R100Q+A101I | -0.04 0.42 0.58 0.19 0.10 0.22 | 0 of 18 |
| 25 | T28Q+S31Q+G61S+A101Q | 0.02 -0.30 -0.26 -0.29 0.09 -0.04 | 0 of 18 |
| 26 | S31E+S53A+R100Q+D106K | 0.34 0.57 0.52 0.62 0.19 0.44 | 0 of 18 |
| 27 | T28D+G61S+A101S | -0.45 -1.23 -0.50 1.12 0.14 -0.37 | 0 of 18 |
| 28 | S31D+G61T+A101F+S107N | 2.09 1.29 1.56 1.90 1.54 0.54 | 0 of 18 |
| 29 | S31D+T58M+F59W+G61I | ND 0.79 0.93 ND 2.62 1.49 | 0 of 18 |
| 30 | G26K+N30E+S53A | ND ND 2.33 2.80 1.71 1.28 | 0 of 18 |
| 31 | S53A+F105N+D106K+S107T | ND ND ND ND ND ND | 0 of 18 |
| 32 | T28S+G61C+R100M+A101L | 2.15 1.69 1.64 1.07 ND 2.42 | 1 of 18 (2.35) |
| 33 | G61C+R100Q+A101L | ND ND ND 3.05 ND 1.68 | 0 of 18 |
| 34 | T28E+S31D+F59E+G61I | 0.74 ND 1.47 0.23 0.61 ND | 0 of 18 |
| 35 | T28P+G61I+R100Q+A101L | 0.38 0.20 -0.19 -0.18 0.20 0.10 | 1 of 18 (1.69) |
| 36 | S31E+G61T+A101V+S107I | 0.53 -0.49 -0.60 0.22 0.10 0.89 | 0 of 18 |
| 37 | T28G+S31E+F59Q+G61I | 0.39 0.33 0.60 0.46 0.42 0.79 | 0 of 18 |
| 38 | S31E+G61H+A102G | ND 1.17 ND 0.26 0.90 ND | 0 of 18 |
| 39 | T28S+S31E+S53A+R100M | -0.63 -0.81 -0.35 -0.90 -0.93 -0.52 | 0 of 18 |
| 40 | G26R+G61I+A101E | ND ND ND ND ND ND | 0 of 18 |
| 41 | S31E+G61S+S63A+R100K+A101C | ND ND ND ND ND ND | 0 of 18 |
| 42 | G26R+T28E+G61I+A101I | ND ND ND ND ND 1.48 | 0 of 18 |

Picked from the list: the 5 lowest averages where every replicate gave a value.

changes	log10 Kd (nM) by replicate	empty controls
T28S+S31E+S53A+R100M	-0.63 -0.81 -0.35 -0.90 -0.93 -0.52	0 of 18
N30D+G61D+R100Q+A101V	-0.42 -0.22 -0.09 -0.38 -0.23 -0.54	0 of 18
T28D+G61S+A101S	-0.45 -1.23 -0.50 1.12 0.14 -0.37	0 of 18
T28Q+S31Q+G61S+A101Q	0.02 -0.30 -0.26 -0.29 0.09 -0.04	0 of 18
T28P+S31M+S53A+R100E	0.23 -0.15 -0.12 -0.24 -0.16 0.07	0 of 18

Values of this round are not directly comparable with the first-round values of the same sequences. Background: pairings of all heavy chain designs with three empty control strains gave a value in 1% of cases (median 2.08, 5th percentile 0.84). Values in that range, when seen in few replicates, are hard to tell from nonspecific mating. The control count says in how many pairings with the empty strains this scFv gave a signal, with their mean in brackets. The authors' rule: three or more of the six replicates give a measured affinity, fewer mean a poor binder. Of ten entries with the parent sequence, four were seen in most replicates (averages 0.34 to 2.37), three in one and three in none, so single entries are noisy.

Reference: Li et al. 2023, doi:10.1038/s41467-023-39022-2. File: FLAb, binding data.